This experiment concerns the target T1, human melanocortin receptor 4 (human, UniProt P32245 1-332).
T1 construct: whole, on cells; also called MC4r; MC4R
In words: competition radioligand binding on HEK 293 cells stably expressing hMC4R; tracer 125I-NDP-MSH or 125I-AGRP (87-132). How it is done:
HEK 293 cells stably expressing the human melanocortin receptors (hMCR's) 1-5 are grown in media. […] Concentrations of cold ligand are added from 100 mM -1 nM. Binding reactions are terminated by washing cells twice with MEM 0.2% BSA. The cells are lysed with 0.1 N NaOH 1% Triton X, and radioactivity of the lysate is quantified with a gamma-analytical counter. […] IC₅₀<100 mM is considered a specific binder

Amino acid sequences for entries named in this document (tags omitted).
UniProt P32245, whole entry: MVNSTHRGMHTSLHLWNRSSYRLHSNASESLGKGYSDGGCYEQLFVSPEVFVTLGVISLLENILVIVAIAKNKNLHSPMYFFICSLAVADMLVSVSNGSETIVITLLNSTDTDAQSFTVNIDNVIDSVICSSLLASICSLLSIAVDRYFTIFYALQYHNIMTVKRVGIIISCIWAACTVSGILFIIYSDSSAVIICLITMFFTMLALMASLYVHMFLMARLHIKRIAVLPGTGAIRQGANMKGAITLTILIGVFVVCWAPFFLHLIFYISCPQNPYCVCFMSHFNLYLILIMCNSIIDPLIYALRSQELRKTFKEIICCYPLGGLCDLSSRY

A word on the IC50: it is the concentration at which inhibition is half-maximal. A higher IC50 goes with a need for much substance.

B1: N^α-Acetyl-MARP (minimized agouti related protein, human AGRP residues 87-132) (peptide)
peptide: CVRLHESCLGQQVPCCDPCATCYCRFFNAFCYCRKLGTAMNPCSRT
modifications: N-alpha-acetyl at the N-terminus (as synthesized); five disulfide bonds 1-16, 8-22, 15-33, 19-43, 24-31 (MARP numbering)
notes: Chemically synthesized and folded; it is treated as the same molecule
In the case of B1, the half-maximal inhibitory concentration (IC50) turned out to be 9 nM.

These data come from US20030064921A1, “Methods and compounds for modulating melanocortin receptor ligand binding and activity” (The Regents of the University of California, priority 1999, published 2003).
